The test system of the experiment is B-Raf inhibitor resistant cells A375 or Lu1205R. In words: Growth in soft agar of B-Raf inhibitor resistant cells. The experiment is classed as cell-based, human. To be noted: two weeks in soft agar. How it is done: Melanoma cells A375 and Lu1205 were cultured in Dulbecco's modified Eagle's medium (DMEM) supplemented with 10% fetal bovine serum (FBS), and penicillin-streptomycin. The melanoma UACC cell lines (UACC91, UACC502, UACC612, UACC647, and UACC1113) were maintained in Rosewell Park Memorial Institute Medium (RPMI1640) supplemented with 10% FBS and penicillin-streptomycin.

Regarding `CC(C)(C)c1nc2c3cc[nH]c(=O)c3c3cc(F)ccc3c2[nH]1` [Pyridone 6], the “growth in soft agar” value is “did not inhibit growth”.

(Values after patent publication US20180214449A1, “CANCER THERAPY USING JAK INHIBITOR IN COMBINATION WITH MAPK INHIBITORS” (UBRX, INC., priority 2015, published 2018).)
